Earlier results, collected in patent US9517202B2, “Phospholipid depot” (LATITUDE PHARMACEUTICALS INC., priority 2009, dated 2016).

Details: in vivo; cited from earlier work

insulin
half-life in the circulation: 5 to 6 min
